# Apparent affinities of Ab-14 variants for a coronavirus HR2 peptide

The target is the same throughout: PDVDLGDISGINAS, from the HR2 region of SARS-CoV-2 spike.

Parent: Ab-14, a human scFv built as VH, a (GGGGS)3 linker, VL. Only the CDRs of the light chain vary.
VH: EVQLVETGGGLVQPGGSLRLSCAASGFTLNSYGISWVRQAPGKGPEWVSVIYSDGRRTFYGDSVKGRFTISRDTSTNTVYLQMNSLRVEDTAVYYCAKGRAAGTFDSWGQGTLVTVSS
VL: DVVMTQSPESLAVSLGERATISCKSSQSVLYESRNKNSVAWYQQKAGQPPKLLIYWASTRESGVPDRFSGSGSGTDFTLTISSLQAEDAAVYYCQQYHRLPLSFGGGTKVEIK

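AAYL50 was designed without a model: most single CDR substitutions and a random sample of double and triple ones. In AlphaSeq, yeast of one mating type display the scFv and yeast of the other type display the target. After mating in shaken culture at 30 °C for 16 h, diploids were selected and their barcode pairs sequenced. Each replicate has its own calibration line, from reference interactions of the BCL2 family. There are three technical replicates.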

Sequences are complete VL domains. Numbers give log10(Kd / nM), so 0 is 1 nM and 3 is 1 µM. Smaller is tighter. "nd" means that the variant was in the library but no mating with the target was seen in that replicate; the authors take this as a sign of poor binding, and no number exists.

VL	log10 Kd (nM) by replicate
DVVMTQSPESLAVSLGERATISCKHSQSVYYESRNKNSVAWYQQKAGQPPKLLIYWASLRESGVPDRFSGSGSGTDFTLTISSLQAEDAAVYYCQQYHRLPLSFGGGTKVEIK	1.38 / 1.73 / 1.29
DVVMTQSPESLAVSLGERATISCKSSQSVLYESRNKNYVAWYQQKAGQPPKLLIYWASTRESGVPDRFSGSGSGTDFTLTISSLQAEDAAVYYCQMYHRLPLIFGGGTKVEIK	2.87 / 2.35 / 2.72
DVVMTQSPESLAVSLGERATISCKSSQSVLYESFNKNSVAWYQQKAGQPPKLLIYTMSTRESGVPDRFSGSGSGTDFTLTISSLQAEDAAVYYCQQYHRLPLSFGGGTKVEIK	2.75 / 2.18 / 2.41
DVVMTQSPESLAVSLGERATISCKTSQSVLYESRNKNSTAWYQQKAGQPPKLLIYWASTRESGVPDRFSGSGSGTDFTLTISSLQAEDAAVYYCQQYHRLPLSFGGGTKVEIK	6.54 / 3.59 / 5.12
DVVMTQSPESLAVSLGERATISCKSSQSVLYFSRNKNSVAWYQQKAGQPPKLLIYWASTREYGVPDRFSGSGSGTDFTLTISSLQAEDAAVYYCQQYHRNPLSFGGGTKVEIK	2.79 / 2.82 / 2.90
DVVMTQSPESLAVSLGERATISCKSSGSVLVESDNKNSVAWYQQKAGQPPKLLIYWASTRESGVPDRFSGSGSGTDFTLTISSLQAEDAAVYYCQQYHRLPLSFGGGTKVEIK	0.29 / 0.54 / 0.47
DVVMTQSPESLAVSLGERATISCKTSQSVLYPSRNKNSVAWYQQKAGQPPKLLIYWASTRESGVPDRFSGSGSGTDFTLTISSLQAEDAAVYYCQQYHRLPYSFGGGTKVEIK	1.77 / 1.90 / 2.06
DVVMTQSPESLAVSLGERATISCKSSQSVLYEIRNKNSVAWYQQKAGQPPKLLIYWASTFESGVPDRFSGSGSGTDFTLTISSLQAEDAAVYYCQQTHRLPLSFGGGTKVEIK	nd / nd / nd
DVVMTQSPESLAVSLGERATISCKSSQSVLYESRNKPSVAWYQQKAGQPPKLLIYPASTRESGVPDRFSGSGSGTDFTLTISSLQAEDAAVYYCTQYHRLPLSFGGGTKVEIK	5.68 / 5.58 / 4.43
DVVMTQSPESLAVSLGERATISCKSSQSVLYESRNKNVVAWYQQKAGQPPKLLIYWASTRESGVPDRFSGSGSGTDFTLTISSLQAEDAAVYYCIQYHRTPLSFGGGTKVEIK	nd / nd / nd
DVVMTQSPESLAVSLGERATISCKSSQSVLYESRNKNSVQWYQQKAGQPPKLLIYWASTRESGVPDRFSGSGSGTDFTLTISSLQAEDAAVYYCQQRHILPLSFGGGTKVEIK	3.78 / nd / 5.30
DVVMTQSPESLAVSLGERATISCKSSQSVLYESQNKNSVAWYQQKAGQPPKLLIYWNSTRESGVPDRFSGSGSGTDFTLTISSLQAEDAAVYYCQQYHRLILSFGGGTKVEIK	nd / 3.98 / nd
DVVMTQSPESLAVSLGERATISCKSSNSVLYESRNKNSVAWYQQKAGQPPKLLIYWASTRESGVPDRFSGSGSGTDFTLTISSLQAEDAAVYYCQQHDRLPLSFGGGTKVEIK	4.28 / 3.50 / 4.47
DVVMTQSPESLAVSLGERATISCKISQSVLYESRNKNAVAWYQQKAGQPPKLLIYWASTRESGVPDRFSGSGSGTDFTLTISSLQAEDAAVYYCQQYHRLPISFGGGTKVEIK	-0.20 / 0.16 / -0.12
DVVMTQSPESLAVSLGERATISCKSSQSVLSESRNKNSVAWYQQKAGQPPKLLIYWASTRESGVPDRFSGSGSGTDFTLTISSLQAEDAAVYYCQQYHMLPLLFGGGTKVEIK	0.61 / 0.65 / 0.66
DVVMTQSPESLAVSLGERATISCKSSQSLLYESRNKSSVAWYQQKAGQPPKLLIYWASTRESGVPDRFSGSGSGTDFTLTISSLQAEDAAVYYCQQYHRRPLSFGGGTKVEIK	0.61 / 0.71 / 0.63
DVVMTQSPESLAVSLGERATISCKSQQSVLYESRNKNSVAWYQQKAGQPPKLLIYFWSTRESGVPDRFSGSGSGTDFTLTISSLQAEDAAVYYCQQYHRLPLSFGGGTKVEIK	4.44 / 3.90 / 4.32
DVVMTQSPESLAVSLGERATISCKSEQSVLYESRNKNSAAWYQQKAGQPPKLLIYWASTRESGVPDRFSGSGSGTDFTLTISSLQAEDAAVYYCQQYHRLPLSFGGGTKVEIK	nd / 3.78 / nd
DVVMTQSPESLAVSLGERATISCFSSESVLYESRNKNSVAWYQQKAGQPPKLLIYWKSTRESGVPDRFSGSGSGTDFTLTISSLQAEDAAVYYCQQYHRLPLSFGGGTKVEIK	5.28 / 3.46 / nd
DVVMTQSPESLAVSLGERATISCKSSQSVLYKSRNKNSVAWYQQKAGQPPKLLIYWASMRESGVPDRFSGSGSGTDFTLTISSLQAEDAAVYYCQQTHRLPLSFGGGTKVEIK	nd / 3.79 / 5.88
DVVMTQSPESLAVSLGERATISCKSSQSVLYESRNKNSVAWYQQKAGQPPKLLIYWASTRESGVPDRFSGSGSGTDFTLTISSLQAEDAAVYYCPQFHRLPLSFGGGTKVEIK	nd / nd / nd
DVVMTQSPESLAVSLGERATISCKSSQSVLYEERIKNSVAWYQQKAGQPPKLLIYWASTRESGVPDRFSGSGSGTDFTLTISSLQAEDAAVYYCQQYHRLPLSFGGGTKVEIK	nd / nd / nd
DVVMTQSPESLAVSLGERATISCNSSQSVLYESRNKNSSAWYQQKAGQPPKLLIYWASTRESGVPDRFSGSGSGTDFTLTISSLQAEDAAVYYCQQYHRQPLSFGGGTKVEIK	nd / nd / nd
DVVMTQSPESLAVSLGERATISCKSCQSVLYESRNKNNVAWYQQKAGQPPKLLIYWASTRESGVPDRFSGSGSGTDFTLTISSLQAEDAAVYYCQQYHFLPLSFGGGTKVEIK	1.50 / 1.25 / 1.02
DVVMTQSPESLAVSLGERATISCKSSQSVLYESRNKNSVAWYQQKAGQPPKLLIYWASIREMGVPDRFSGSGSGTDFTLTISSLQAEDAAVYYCQQYHRLPLGFGGGTKVEIK	2.53 / 2.10 / 2.50

For reference, 4 entries of the list once more:

VL	log10 Kd (nM) by replicate
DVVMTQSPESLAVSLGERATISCKSSQSVLYESRNKNSVQWYQQKAGQPPKLLIYWASTRESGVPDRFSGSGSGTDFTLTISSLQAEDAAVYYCQQRHILPLSFGGGTKVEIK	3.78 / nd / 5.30
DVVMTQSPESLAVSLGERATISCNSSQSVLYESRNKNSSAWYQQKAGQPPKLLIYWASTRESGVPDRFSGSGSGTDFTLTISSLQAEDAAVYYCQQYHRQPLSFGGGTKVEIK	nd / nd / nd
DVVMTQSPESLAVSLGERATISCKSSQSVLYEERIKNSVAWYQQKAGQPPKLLIYWASTRESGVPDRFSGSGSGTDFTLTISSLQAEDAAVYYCQQYHRLPLSFGGGTKVEIK	nd / nd / nd
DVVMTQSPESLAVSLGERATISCFSSESVLYESRNKNSVAWYQQKAGQPPKLLIYWKSTRESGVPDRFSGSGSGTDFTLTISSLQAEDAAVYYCQQYHRLPLSFGGGTKVEIK	5.28 / 3.46 / nd

For reference, the parent read 0.65 as the reference entry and 1.68 as a member of this library. Three control strains display no target. For library AAYL50, 18% of the pairings with them gave a signal, with a median of 4.19 and one signal in twenty below 2.99, so weak values seen in few replicates may be background.

Source: Engelhart et al. 2022 (doi:10.1038/s41597-022-01779-4), MIT Lincoln Laboratory and A-Alpha Bio; data file from the FLAb repository.